The source of these data is patent US6579696B1, “Polymyxin B conjugates” (priority 1992, dated 2003).

The assay relates to E. coli 0111:B4.

The term MIC denotes the lowest concentration that inhibits growth of the organism. A lower MIC goes with a more susceptible organism.

Consider `CC(C)C[C@H](NC(=O)[C@H](Cc1ccccc1)NC(=O)[C@H](CCCNC(=N)N)NC(=O)[C@H](CCCCN)NC(=O)[C@H](CCC(N)=O)NC(=O)[C@H](C)NC(=O)[C@H](CCCCN)NC(=O)[C@H](Cc1c[nH]c2ccccc12)NC(=O)[C@H](CCCCN)NC(=O)[C@@H](N)CSC1CC(=O)N(CC2CCC(C(=O)NCCCCNC(=O)CCCC[C@@H]3SC[C@@H]4NC(=O)N[C@@H]43)CC2)C1=O)C(=O)N[C@@H](CCCCN)C(=O)O` (stereo partly shown) [C90-99-Cys-Biotin], for which the MIC is over 108 µg/mL.
